Literature values as cited in paper PMC11221189, “Gut microbiota DPP4-like enzymes are increased in type-2 diabetes and contribute to incretin inactivation” (Genome Biology, 2024).

Tests used:
[1] = test system: DPP4-like enzyme from B. thetaiotaomicron; settings: cited from earlier work
[2] = test system: DPP4 activity in the contents of the cecum and feces; settings: mice; cited from earlier work

| SMILES | Inhibition range of B. thetaiotaomicron DPP4-like enzyme [1] | DPP4 activity in the contents of the cecum and feces [2] |
| --- | --- | --- |
| N[C@@H](CC(=O)N1CCn2c(nnc2C(F)(F)F)C1)Cc1cc(F)c(F)cc1F [Sitagliptin, sitagliptin] | ~10^−6 | – |
| N#C[C@@H]1CCCN1C(=O)CNC12CC3CC(CC(O)(C3)C1)C2 [Vildagliptin, vildagliptin] | – | abolished |
